PMC8049364, “Quantification of Macrophage-Driven Inflammation During Myocardial Infarction with ^18F-LW223, a Novel TSPO Radiotracer with Binding Independent of the rs6971 Human Polymorphism” (Journal of Nuclear Medicine, 2021)

By UniProt entry, the sequences of proteins in these tests, tags left out. Residues count along the entry.
UniProt P30536, whole entry: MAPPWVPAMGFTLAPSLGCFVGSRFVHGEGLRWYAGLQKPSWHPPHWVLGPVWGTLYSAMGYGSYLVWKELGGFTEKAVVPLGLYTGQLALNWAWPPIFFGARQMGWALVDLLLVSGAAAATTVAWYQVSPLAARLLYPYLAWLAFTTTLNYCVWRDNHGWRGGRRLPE
UniProt P30536, 2-169: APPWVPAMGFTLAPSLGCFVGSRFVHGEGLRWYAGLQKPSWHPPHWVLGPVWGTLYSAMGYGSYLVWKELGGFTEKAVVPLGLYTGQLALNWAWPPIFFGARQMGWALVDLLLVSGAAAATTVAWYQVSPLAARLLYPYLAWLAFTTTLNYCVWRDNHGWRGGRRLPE

What was measured:
[1] = target: T1, TSPO (Homo sapiens, UniProt P30536); test: biochemical
Experimental: (§1) All studies using human tissue were conducted in accordance with the National Health Service Research Ethics Committee South East Scotland (Edinburgh Brain and Tissue Bank, 16/ES/0084). Supplemental Table 1 contains the Brain Bank Network reference number for all tissues used from the Edinburgh Brain and Tissue Bank. […] Samples were homogenized in ×10 w/v buffer (50 mM Tris-Base, pH 7.4, 4°C) before centrifugation (32,000g, 10 min, 4°C). Tissue pellets were then resuspended in ×10 w/v buffer and centrifuged again before resuspending in 2 mL of buffer. Samples were assessed for protein concentration using the Bio-Rad protein assay, aliquoted, and stored at −80°C until use. The competition binding assay protocol was adjusted from a previously reported protocol ([16]), as detailed within the supplemental materials.
(§2) In Vitro Human Competition Binding Assays
(§3) Briefly, 250 µg protein/mL in 200 µl of buffer was added to 100 µl of 1 nM 3H- […]
(§4) Aldrich, USA), PBR28 (ABX, Germany), AB5186 or LW223 at 14 different concentrations (0.001-3000 nM) for 90 min at 4 °C. […] Filter paper was then removed, placed into 2.5 mL of Optiphase HiSafe 3 (Perkin Elmer, USA) and counted 48 hours later on a Hidex 300 SL (Hidex, Finland). […]
saturation binding results, Sup.Fig.2) was used to determine the best fitting model and to calculate LAB:HAB ratios. Affinity values (Ki) were calculated by fitting individual tissue […]

[2] = target: T1, TSPO; test: In vitro competition binding assay with ^3H-PK11195 in human brain homogenates (HAB, MAB, LAB)
Experimental: as §1, §2, §3, §4
(§5) saturation binding results, Sup.Fig.2) was used to determine the best fitting model and to calculate LAB:HAB ratios. Affinity values (Ki) were calculated by fitting individual tissue

[3] = target: T1, TSPO; test: In vitro competition binding assay with ^3H-PK11195 in human heart homogenates (HAB, MAB, LAB); details: read-out: mean Ki
Experimental: as §1, §2, §3, §4, §5

Q: With CCC(C)N(C)C(=O)c1cc2ccccc2c(-c2ccccc2Cl)n1 (stereo not drawn) [PK11195, 1-(2-chlorophenyl)-N-methyl-N-(1-methylpropyl)-3-isoquinolinecarboxamide, reference compound] as the compound, how does the Kd [1] read?
A: 14 nM

Q: What about the “Effect of rs6971 genetic polymorphism on Ki” value [2] of the same compound?
A: unaffected

Q: What about the Ki [3] of the same compound?
A: 1.7 nM
